Test results published in ChEMBL document CHEMBL5154899, “Spiropyrimidinetrione DNA Gyrase Inhibitors with Potent and Selective Antituberculosis Activity” (J Med Chem, 2022).

Columns and labels:
[1] = octanol/water, pH 7.4, 3 h
[2] = physchem

Structure (SMILES) | logD [1] | solubility kinetic at 20 h, 200 µM [2]
C[C@@H]1CN2c3c(cc4c(OC[C@@H]5CCC(=O)O5)noc4c3F)CC3(C(=O)NC(=O)NC3=O)[C@H]2[C@H](C)O1 | 1.6 | 170 µM (≈ 85.4 µg/mL)
C[C@@H]1CN2c3c(cc4c(N5C(=O)OC[C@@H]5C)noc4c3F)CC3(C(=O)NC(=O)NC3=O)[C@H]2[C@H](C)N1CC#N | – | 95 µM (≈ 49.9 µg/mL)
C[C@@H]1CN2c3c(cc4c(OC[C@@H]5CNC(=O)C5)noc4c3F)CC3(C(=O)NC(=O)NC3=O)[C@H]2[C@H](C)O1 | 1.3 | 190 µM (≈ 95.3 µg/mL)
C[C@@H]1CN2c3c(cc4c(OC[C@@H]5COC(=O)N5)noc4c3F)CC3(C(=O)NC(=O)NC3=O)[C@H]2[C@H](C)O1 | – | 180 µM (≈ 90.6 µg/mL)
C[C@@H]1CN2c3c(cc4c(OC[C@H]5CNC(=O)C5)noc4c3F)CC3(C(=O)NC(=O)NC3=O)[C@H]2[C@H](C)O1 | 1.4 | 200 µM (≈ 100 µg/mL)
Cc1nnc(-c2noc3c(F)c4c(cc23)CC2(C(=O)NC(=O)NC2=O)[C@H]2[C@H](C)N(C#N)[C@H](C)CN42)o1 | 1.9 | 45 µM (≈ 22.2 µg/mL)
C[C@@H]1CN2c3c(cc4c(OC[C@@H]5CCC(=O)N5)noc4c3F)CC3(C(=O)NC(=O)NC3=O)[C@H]2[C@H](C)N1C#N | 1.3 | 130 µM (≈ 68.3 µg/mL)
Cc1nnc(-c2noc3c(F)c4c(cc23)CC2(C(=O)NC(=O)NC2=O)[C@H]2[C@H](C)O[C@H](C)CN42)o1 | 2.3 | 140 µM (≈ 65.9 µg/mL)
C[C@@H]1CN2c3c(cc4c(N5C[C@H](O)[C@@H](O)C5)noc4c3F)CC3(C(=O)NC(=O)NC3=O)[C@H]2[C@H](C)O1 | 0.89 | 190 µM (≈ 93 µg/mL)
C[C@@H]1CN2c3c(cc4c(N5CCC[C@H](O)C5)noc4c3F)CC3(C(=O)NC(=O)NC3=O)[C@H]2[C@H](C)O1 | 1.9 | > 200 µM
C[C@@H]1CN2c3c(cc4c(-n5cncn5)noc4c3F)CC3(C(=O)NC(=O)NC3=O)[C@H]2[C@H](C)O1 | 1.6 | 115 µM (≈ 52.4 µg/mL)
C[C@@H]1CN2c3c(cc4c(N5CCC[C@@H](O)C5)noc4c3F)CC3(C(=O)NC(=O)NC3=O)[C@H]2[C@H](C)O1 | 1.8 | > 200 µM
C[C@@H]1CN2c3c(cc4c(N5C[C@@H](O)[C@H](O)C5)noc4c3F)CC3(C(=O)NC(=O)NC3=O)[C@H]2[C@H](C)O1 | 1.2 | > 200 µM
C[C@@H]1CN2c3c(cc4c(N5CC[C@@H](O)C5)noc4c3F)CC3(C(=O)NC(=O)NC3=O)[C@H]2[C@H](C)O1 | 1.4 | > 200 µM
C[C@@H]1CN2c3c(cc4c(OC[C@@H]5CCC(=O)N5C)noc4c3F)CC3(C(=O)NC(=O)NC3=O)[C@H]2[C@H](C)O1 | 1.6 | 190 µM (≈ 97.9 µg/mL)
C[C@@H]1CN2c3c(cc4c(N5CC[C@H](O)C5)noc4c3F)CC3(C(=O)NC(=O)NC3=O)[C@H]2[C@H](C)O1 | – | 190 µM (≈ 90 µg/mL)
C[C@@H]1CN2c3c(cc4c(N5C[C@@H](O)[C@@H](O)C5)noc4c3F)CC3(C(=O)NC(=O)NC3=O)[C@H]2[C@H](C)O1 | 0.76 | > 200 µM
C[C@@H]1CN2c3c(cc4c(OC[C@H]5COC(=O)N5)noc4c3F)CC3(C(=O)NC(=O)NC3=O)[C@H]2[C@H](C)O1 | 1.3 | 190 µM (≈ 95.7 µg/mL)
C[C@@H]1CN2c3c(cc4c(N5CC[C@H](F)C5)noc4c3F)CC3(C(=O)NC(=O)NC3=O)[C@H]2[C@H](C)O1 | 2.2 | 5 µM (≈ 2.38 µg/mL)
C[C@@H]1CN2c3c(cc4c(N5C(=O)OC[C@@H]5C)noc4c3F)CC3(C(=O)NC(=O)NC3=O)[C@H]2[C@H](C)N1O | 0.58 | > 200 µM

Structure (SMILES) | logD [1] | solubility kinetic at 20 h, 200 µM [2]
Cc1nnc(-c2noc3c(F)c4c(cc23)CC2(C(=O)NC(=O)NC2=O)[C@H]2[C@H](C)[C@@H](O)[C@H](C)CN42)o1 | 3.2 | 15 µM (≈ 7.27 µg/mL)
C[C@@H]1CN2c3c(cc4c(OCC[C@@H]5CCC(=O)N5)noc4c3F)CC3(C(=O)NC(=O)NC3=O)[C@H]2[C@H](C)O1 | 1.7 | 190 µM (≈ 97.9 µg/mL)
Cc1nnc(COc2noc3c(F)c4c(cc23)CC2(C(=O)NC(=O)NC2=O)[C@H]2[C@H](C)O[C@H](C)CN42)o1 | 1.6 | 190 µM (≈ 95.1 µg/mL)
C[C@@H]1CN2c3c(cc4c(-n5cncn5)noc4c3F)CC3(C(=O)NC(=O)NC3=O)[C@H]2[C@H](C)N1C#N | 1.7 | 50 µM (≈ 24 µg/mL)
C[C@@H]1CN2c3c(cc4c(OC[C@H]5CCC(=O)N5)noc4c3F)CC3(C(=O)NC(=O)NC3=O)[C@H]2[C@H](C)O1 | 1.4 | < 5 µM
C[C@@H]1CN2c3c(cc4c(N5CC[C@@H](O)C5)noc4c3F)CC3(C(=O)NC(=O)NC3=O)[C@H]2[C@H](C)N1C#N | 1.2 | 145 µM (≈ 72.1 µg/mL)
C[C@@H]1CN2c3c(cc4c(OC[C@@H]5CCC(=O)N5)noc4c3F)CC3(C(=O)NC(=O)NC3=O)[C@H]2[C@H](C)O1 | – | 185 µM (≈ 92.8 µg/mL)
C[C@@H]1CN2c3c(cc4c(N5CC[C@H](CO)C5)noc4c3F)CC3(C(=O)NC(=O)NC3=O)[C@H]2[C@H](C)O1 | 1.7 | 170 µM (≈ 82.9 µg/mL)
C[C@@H]1CN2c3c(cc4c(OC[C@H]5CCC(=O)O5)noc4c3F)CC3(C(=O)NC(=O)NC3=O)[C@H]2[C@H](C)O1 | 1.5 | 155 µM (≈ 77.9 µg/mL)
CC(=O)N1[C@H](C)CN2c3c(cc4c(N5C(=O)OC[C@@H]5C)noc4c3F)CC3(C(=O)NC(=O)NC3=O)[C@H]2[C@@H]1C | 1.4 | > 200 µM
CO[C@H]1CCN(c2noc3c(F)c4c(cc23)CC2(C(=O)NC(=O)NC2=O)[C@H]2[C@H](C)O[C@H](C)CN42)C1 | 2 | 140 µM (≈ 68.2 µg/mL)
C[C@@H]1CN2c3c(cc4c(N5CC[C@H](C#N)C5)noc4c3F)CC3(C(=O)NC(=O)NC3=O)[C@H]2[C@H](C)O1 | 1.7 | > 200 µM
C[C@@H]1CN2c3c(cc4c(N5CC[C@H](C(=O)O)C5)noc4c3F)CC3(C(=O)NC(=O)NC3=O)[C@H]2[C@H](C)O1 | – | 150 µM (≈ 75.2 µg/mL)
C[C@H]1C[C@@H](C)[C@H]2N(C1)c1c(cc3c(OC[C@@H]4CCC(=O)N4)noc3c1F)CC21C(=O)NC(=O)NC1=O | 3.9 | 40 µM (≈ 20 µg/mL)
C[C@@H]1CN2c3c(cc4c(N5C(=O)OC[C@@H]5C)noc4c3F)CC3(C(=O)NC(=O)NC3=O)[C@H]2[C@H](C)N1C#N | 1.8 | < 5 µM
C[C@@H]1CN2c3c(cc4c(N5C(=O)OC[C@@H]5C)noc4c3F)CC3(C(=O)NC(=O)NC3=O)[C@H]2[C@H](C)N1 | 0.3 | 50 µM (≈ 24.3 µg/mL)
C[C@@H]1CN2c3c(cc4c(N5CC[C@H](O)C5)noc4c3F)CC3(C(=O)NC(=O)NC3=O)[C@H]2[C@H](C)N1C#N | 1.3 | 155 µM (≈ 77.1 µg/mL)
C[C@@H]1CN2c3c(cc4c(N5CC[C@@](C)(O)C5)noc4c3F)CC3(C(=O)NC(=O)NC3=O)[C@H]2[C@H](C)O1 | 1.6 | 175 µM (≈ 85.3 µg/mL)
C[C@@H]1CN2c3c(cc4c(N5CC[C@H](N)C5)noc4c3F)CC3(C(=O)NC(=O)NC3=O)[C@H]2[C@H](C)O1 | 0.16 | > 200 µM

Values after ≈ are worked out from the molar mass of the structure shown.
